Measurements from patent US10555932B2, “Method of restoring analgesic efficacy of alpha2-adrenoceptor agonists in neuropathic pain treatment” (KOREA INSTITUTE OF SCIENCE AND TECHNOLOGY, priority 2016, dated 2020).

Assays:
[1] = tested on: motion performance; conditions: mouse
Description: To evaluate degradation of motion performance capability as one of side effects caused by the low blood pressure, rotarod test was performed on each of the mice administered with clonidine or the RGS4 inhibitor. […] All mice were tested 24 hours before the actual rotarod test, and mice that were able to remain on the rod for at least 120 seconds were included in the experiment. 30 minutes after clonidine injection, each animal was subsequently tested on the rotarod over 2-minutes period and their performance time on the bar (in seconds) was measured. The test was repeated 3 times and the mean value for each animal was recorded.
(§1) Test results are expressed as means±SEM unless otherwise stated. Data analysis and statistical comparisons were performed using GraphPad Prism version 5.0 (GraphPad Software, San Diego, Calif.). Comparison between two groups was made using the Student's t-test. For multiple comparisons, ANOVA followed by post hoc Tukey test was performed. Differences with P<0.05 were considered significant.

[2] = tested on: systolic blood pressure (SBP); conditions: mouse
Description: To evaluate the induction of low blood pressure, systolic blood pressure (SBP) was measured using a non-invasive computerized tail-cuff system as previously described in the art (PowerLab system, ADI Instrument Pry Ltd., Chain Hills, NSW, Australia). Briefly, animals were acclimated for 30 minutes in a quiet test room prior to obtaining cardiovascular measurements. At the end of the 1 hour period, the SBP was measured. This experiment was repeated 3 times and the mean value for each animal was recorded. […] All cardiovascular measurements were obtained between 1 pm to 3 pm in order to avoid changes due to normal circadian rhythms.
as §1

[3] = human, cited from earlier work
[4] = hydrochloride, about 0.2 μg/kg/hour to about 0.7 μg/kg/hour, within 24 hours; cited from earlier work

## Cc1cccc([C@H](C)c2c[nH]cn2)c1C.Cl [dexmedetomidine, 4-[(1S)-1-(2,3-dimethylphenyl)ethyl]-1H-imidazole hydrochloride]
[1]; 1 nmol in combination with the RGS4 inhibitor (FIG. 8)
  decreased motor performance side effect: no side effects
[1]; dexmedetomidine 3 nmol alone (FIG. 8)
  motor performance (rotarod): rapidly decreased motor performance
[2]; 1 nmol in combination with the RGS4 inhibitor (FIG. 7)
  low blood pressure side effect: no side effects
[2]; dexmedetomidine 3 nmol alone (effective dose), 30 minutes after treatment (FIG. 7)
  blood pressure (SBP) change: significant symptoms of low blood pressure
[3]; 0.5 μg/kg intravenously in combination with lidocaine
  side effects: no statistically significant side effects
[3]; about 5 μg/kg to about 10 μg/kg intravenously
  respiratory paralysis: no incidental respiratory paralysis
[4]
  patients with low blood pressure: about 25%
